The target of this experiment is T1, Kinesin-like protein KIF11 (Homo sapiens, UniProt P52732).
T1 sequence (P52732 whole entry): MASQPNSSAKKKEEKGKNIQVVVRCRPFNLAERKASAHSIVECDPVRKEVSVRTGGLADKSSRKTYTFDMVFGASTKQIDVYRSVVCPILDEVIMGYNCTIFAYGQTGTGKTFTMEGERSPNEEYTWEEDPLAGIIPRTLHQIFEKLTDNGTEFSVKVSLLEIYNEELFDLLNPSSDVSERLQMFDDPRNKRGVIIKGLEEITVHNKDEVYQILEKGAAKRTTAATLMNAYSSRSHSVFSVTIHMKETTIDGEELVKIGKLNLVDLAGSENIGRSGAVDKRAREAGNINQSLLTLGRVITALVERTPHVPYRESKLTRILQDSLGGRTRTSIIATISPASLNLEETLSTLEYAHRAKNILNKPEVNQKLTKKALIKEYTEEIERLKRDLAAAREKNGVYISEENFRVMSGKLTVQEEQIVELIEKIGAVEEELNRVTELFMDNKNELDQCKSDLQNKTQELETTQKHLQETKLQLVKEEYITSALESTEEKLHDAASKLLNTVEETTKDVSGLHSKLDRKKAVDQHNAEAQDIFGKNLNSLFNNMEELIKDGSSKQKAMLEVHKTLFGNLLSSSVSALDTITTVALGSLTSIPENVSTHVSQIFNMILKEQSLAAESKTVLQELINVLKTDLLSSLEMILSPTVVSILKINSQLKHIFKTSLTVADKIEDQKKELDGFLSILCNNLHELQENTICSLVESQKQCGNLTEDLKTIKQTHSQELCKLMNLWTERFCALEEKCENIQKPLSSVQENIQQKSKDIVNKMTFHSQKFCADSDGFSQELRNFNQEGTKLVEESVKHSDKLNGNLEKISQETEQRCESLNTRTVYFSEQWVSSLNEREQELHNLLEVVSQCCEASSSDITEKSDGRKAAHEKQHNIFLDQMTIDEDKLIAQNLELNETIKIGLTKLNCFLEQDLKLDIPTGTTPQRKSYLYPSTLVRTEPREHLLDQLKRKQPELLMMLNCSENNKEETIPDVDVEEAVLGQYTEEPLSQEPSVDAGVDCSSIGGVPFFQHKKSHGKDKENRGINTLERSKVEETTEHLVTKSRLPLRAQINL

Usually IC50 stands for the concentration that gives 50% inhibition. Read a high IC50 as a need for much substance. Regarding `COc1ccc(C(SC[C@@H](N)CO)(c2ccccc2)c2ccccc2)cc1`, the IC50 turned out to be 130 nM.

The molecule `COc1ccc(C(SC[C@H](N)CO)(c2ccccc2)c2ccccc2)cc1` yielded an IC50 of 127 nM.

Take `N[C@H](CO)CSC(c1ccccc1)(c1ccccc1)c1ccccc1`: it took 310 nM to reach half-maximal inhibition (IC50).

For the origin of these results see ChEMBL document CHEMBL1817631, “Synthesis and characterization of tritylthioethanamine derivatives with potent KSP inhibitory activity” (Bioorg Med Chem, 2011).
